10 compounds from patent US20260384436A1, “POLYMORPHS OF NEK 7 INHIBITORS” (published 2026) can be followed below.

SMILES strings stand for the structures.

Data set [1] is described as follows: Heating experiment / VT-XRPD for solid form stability. The procedure:
(§1) For XRPD analysis, PANalytical X-ray powder diffractometer was used.
VT-XRPD was performed on solid form Type A for form identification. According to the VT-XRPD result in FIG. 6, form change from solid form Type A into another new form, named as solid form Type O, was initially observed upon N2 sweeping and finished when heated to 100 °C. Based on the ^1H NMR spectrum and VT-XRPD result, solid form Type A was assigned as a hydrate.
Heating experiment was performed on solid form Type B for form identification. According to the XRPD result in FIG. 9, no form change was observed before and after heating solid form Type B to 150 °C and cooling it down to RT. Based on limited TGA weight loss, neat DSC curve, minor solvent residue in ^1H NMR and the heating experiment result, solid form Type B was assigned as an anhydrate.
Heating experiment was performed on solid form Type C for form identification. According to the result shown in FIG. 14 and ^1H NMR, after heating solid form Type C to 115 °C and cooling it down to RT, no form change was observed and the molar ratio of residual THF to API were 0.24 (3.3 wt %). According to the VT-XRPD result in FIG. 15, decrease of crystallinity was observed when heated to 120 °C and amorphization was observed when heated to 175 °C. Based on the above experimental results, solid form Type C was assigned as a (THF) solvate. As the XRPD pattern was also observed in other solvents (e.g., isoamyl alcohol, 1-pentanol and 2-MeTHF), isomorphism may exist for this form.
Heating experiment was performed on solid form Type D for form identification. According to the heating experiment result in FIG. 18, amorphization was observed after heating solid form Type D to 175 °C and cooling it down to RT. According to the solvent residue determined by ^1H NMR, TGA weight loss and heating experiment results, solid form Type D was assigned as an IPA solvate.
Heating experiment was performed on solid form Type E for form identification. According to the heating experiment result in FIG. 21, solid form Type E changed to amorphous when heated to 165 °C and cooled to RT. According to the solvent residue determined by 1H NMR, TGA weight loss and heating experiment results, solid form Type E was assigned as an m-Xylene solvate.
Heating experiment was performed on solid form Type F for form identification. […] According to the solvent residue determined by ^1H NMR, TGA weight loss and heating experiment results, solid form Type F was assigned as a DMSO solvate.
Heating experiment was performed on solid form Type G for form identification. According to the heating experiment result in FIG. 27, solid form Type G changed to amorphous when heated to 175 °C and cooled to RT. According to the solvent residue determined by 1H NMR, TGA weight loss and heating experiment results, solid form Type G was assigned as a 2-BuOH solvate.
Heating experiment was performed on solid form Type H for form identification. According to the heating experiment result in FIG. 30, solid form Type H changed to amorphous when heated to 150 °C and cooled to RT. According to the TGA weight loss, solvent residue in NMR and heating experiment results, solid form Type H was assigned as a hydrate.
Heating experiment was performed on solid form Type I for form identification. According to the heating experiment result in FIG. 33, form change was observed when solid form Type I was heated to 100 °C and cooled to RT and DCM was absent in the heated sample. The obtained sample was named as solid form Type P. According to the ^1H NMR spectra and heating experiment result, solid form Type I was assigned as DCM solvate. Considering solid form Type I was also obtained in ACN slurry system, there might exist isomorphism.
Heating experiment was performed on solid form Type K for form identification. […]

Data set [2] in a line: Approximate solubility of starting material at room temperature. The procedure:
Approximate solubility of starting material was tested in 20 solvents at room temperature. In the experiments, ~2 mg solids were weighted into each 3 mL glass vial, corresponding solvent was then added stepwise (50/50/100/200/600/1000 μL) to see if solids dissolved completely. Solvent addition was halted when the solids dissolved, or total volume reached 2.0 mL. Approximate solubility was calculated based on the mass of solids and solvent volume. Solubility results were summarized in the table below, which was used to guide the solvent selection in the polymorph screening design.

Data set [3] is described as follows: Form change on ambient drying or ambient storage (XRPD). To be noted: for form change before and after ambient drying: ambient drying overnight, XRPD. How it is done: as §1
Solid form Type B was obtained via addition of 2.0 mL n-heptane as anti-solvent into 0.5 mL EtOAc solution of starting material.
Solid form Type J was obtained via slow evaporation of starting material CHCl3 solution. […] Based on the limited TGA weight loss, neat DSC signals and minor solvent residue in ^1H NMR spectrum, solid form Type J was assigned as an anhydrate. Moreover, solid form Type J could convert to solid form Type L when stored under ambient condition with about ~45% RH overnight.

A short description of data set [4]: Dynamic vapor sorption (DVS) hygroscopicity, with XRPD before and after. To be noted: for form change before and after DVS test: 25 °C, 0-95% RH, XRPD; for hygroscopicity: from water uptake at 25 °C/80% RH. How it is done: DVS was measured via a SMS (Surface Measurement Systems) DVS Intrinsic. The relative humidity at 25 °C were calibrated against deliquescence point of LiCl, Mg(NO3)2 and KCl.
DVS was performed on solid form Type B sample (the preparation and characterization results of which were described herein). […] Based on the XRPD overlay shown in FIG. 11, no form change was observed before and after DVS test.
Based on the XRPD overlay shown in FIG. 51, no form change was observed before and after DVS test.

The nature of data set [5]: Slurry competition of solid form Types B and Q (thermodynamic relationship). To be noted: starting forms Type B/Q. How it is done:
Slurry competition experiments were applied for solid form Type B and Q in ethyl acetate/n-heptane at 5 °C/RT/50 °C to further study thermodynamic relationship between these two anhydrates.
To further study thermodynamic relationship between the two anhydrates solid form Types B and Q, slurry competition experiments were applied in EtOAc/n-heptane at 5 °C/RT/50 °C.
Procedure: Corresponding solvents were pre-saturated with solid form Type Q and filtered to the weighted samples containing solid form Type B and solid form Type Q. After slurry at corresponding temperature for 2~4 days, the wet samples were tested by XRPD.

Where [6] appears, read: heated to 100 °C and cooled to RT.
[7] abbreviates: heated to 150 °C and cooled to RT.
[8] abbreviates: heated to 175 °C and cooled to RT.
Setting [9] is: heated to 120 °C and cooled to RT.

Take `Nc1ncnc2c1c(-c1ccc(NC(=O)Nc3cc(C4(C(F)(F)F)CC4)on3)c(F)c1)cn2C1CC1` [solid form Type L]: the “form change after heating” value in data set [1] (setting [6]) is listed as “form change to solid form Type J was observed”.

`Nc1ncnc2c1c(-c1ccc(NC(=O)Nc3cc(C4(C(F)(F)F)CC4)on3)c(F)c1)cn2C1CC1`: the Solubility result in data set [2] (Acetone, room temperature) is reported as “S > 46.0 mg/mL”; in data set [2] (CHCl3, room temperature), “S > 40.0 mg/mL”; in data set [2] (DCM, room temperature) it was “S < 1.3 mg/mL”; in data set [2] (DMAc, room temperature), “S > 48.0 mg/mL”; in data set [2] (DMSO, room temperature), “S > 48.0 mg/mL”; in data set [2] (EtOAc, room temperature) it was “S > 38.0 mg/mL”. For the same compound, the Solubility result in data set [2] (H2O, room temperature) is “S < 1.0 mg/mL”; in data set [2] (MIBK, room temperature) it was “S > 42.0 mg/mL”; in data set [2] (NMP, room temperature), “S > 50.0 mg/mL”; in data set [2] (THF, room temperature), “S > 50.0 mg/mL”; in data set [2] (Toluene, room temperature), “S < 1.1 mg/mL”; in data set [2] (n-Heptane, room temperature) it was “S < 1.2 mg/mL”. In addition, the “form conversion on storage” value in data set [3] (ambient condition, about ~45% RH, overnight) is listed as “could convert to solid form Type L”. The “form change before and after ambient drying” value in data set [3] was “no form change was observed”. Moreover, in data set [1] (N2 sweeping, finished when heated to 100 °C), the “form change (VT-XRPD)” value is “form change from solid form Type A into another new form, named as solid form Type O”. Also, the “form change after heating” value in data set [1] (heated to 115 °C and cooled to RT) was “no form change was observed”. In addition, the “change on heating (VT-XRPD)” value in data set [1] (heated to 120 °C) is recorded as “decrease of crystallinity was observed”; in data set [1] (heated to 175 °C), “amorphization was observed”.

Take `Nc1ncnc2c1c(-c1ccc(NC(=O)Nc3cc(C4(C(F)(F)F)CC4)on3)c(F)c1)cn2C1CC1` [solid form Type Q]: in data set [3], the “form change before and after ambient drying” value is recorded as “no form change was observed”. Moreover, in data set [1] (setting [7]), the “form change after heating” value is “no form change was observed”. For the same compound, in data set [4], the “form change before and after DVS test” value is recorded as “no form change was observed”; the hygroscopicity entry is recorded as “slightly hygroscopic”.

As for `Nc1ncnc2c1c(-c1ccc(NC(=O)Nc3cc(C4(C(F)(F)F)CC4)on3)c(F)c1)cn2C1CC1` [solid form Type H], in data set [1] (setting [7]), the “form change after heating” value was “changed to amorphous”.

In the case of `Nc1ncnc2c1c(-c1ccc(NC(=O)Nc3cc(C4(C(F)(F)F)CC4)on3)c(F)c1)cn2C1CC1` [solid form Type G], the “form change before and after ambient drying” value in data set [3] is “no form change was observed”. Moreover, in data set [1] (setting [8]), the “form change after heating” value is reported as “changed to amorphous”.

Consider `Nc1ncnc2c1c(-c1ccc(NC(=O)Nc3cc(C4(C(F)(F)F)CC4)on3)c(F)c1)cn2C1CC1` [solid form Type B], for which the “slurry competition result (form obtained)” value in data set [5] (5 °C, EtOAc:n-Heptane (1:1)) was “Type B”; in data set [5] (50 °C, EtOAc:n-Heptane (1:1)), “Type B”; in data set [5] (RT, EtOAc:n-Heptane (1:1)), “Type B”; in data set [5] (RT, EtOAc:n-Heptane (1:2)) it was “Type B”; in data set [5] (RT, EtOAc:n-Heptane (2:1)), “Type B”. Also, in data set [3], the “form change before and after ambient drying” value is on record as “no form change was observed”. In addition, the “form change after heating” value in data set [1] (setting [7]) is listed as “no form change was observed”. In data set [4], the “form change before and after DVS test” value is on record as “no form change was observed”. In addition, the water uptake result in data set [4] (25 °C/80% RH) was “lower than 0.2 wt %”. The hygroscopicity result in data set [4] was “nearly non-hygroscopic”.

As to `Nc1ncnc2c1c(-c1ccc(NC(=O)Nc3cc(C4(C(F)(F)F)CC4)on3)c(F)c1)cn2C1CC1` [solid form Type K], the “form change before and after ambient drying” value in data set [3] was “no form change was observed”. In addition, the “form change after heating” value in data set [1] (setting [9]) is given as “severe decrease in crystallinity was observed”.

As for `Nc1ncnc2c1c(-c1ccc(NC(=O)Nc3cc(C4(C(F)(F)F)CC4)on3)c(F)c1)cn2C1CC1` [solid form Type I], the “form change before and after ambient drying” value in data set [3] is “no form change was observed”. The “form change after heating” value in data set [1] (setting [6]) is given as “form change was observed”.

For `Nc1ncnc2c1c(-c1ccc(NC(=O)Nc3cc(C4(C(F)(F)F)CC4)on3)c(F)c1)cn2C1CC1` [solid form Type D], the “form change before and after ambient drying” value in data set [3] is “no form change was observed”. Also, the “form change after heating” value in data set [1] (setting [8]) is recorded as “amorphization was observed”.

Turning to `Nc1ncnc2c1c(-c1ccc(NC(=O)Nc3cc(C4(C(F)(F)F)CC4)on3)c(F)c1)cn2C1CC1` [solid form Type F], the “form change before and after ambient drying” value in data set [3] is recorded as “no form change was observed”. The “form change after heating” value is listed as “no form change was observed” in data set [1] (setting [9]); “changed to amorphous” in data set [1] (heated to 160 °C and cooled to RT).
